Values quoted from earlier work in patent US10829649B2, “Methods and coatings for protecting surfaces from bio-fouling species” (priority 2018, dated 2020).

Conditions: metal pyrithione salts; cited from earlier work

In the case of barium pyrithione, the water solubility is listed as “about 77 mg per L”.
